These are literature values, as cited in article PMC6008299, “Impact of race on dose selection of molecular-targeted agents in early-phase oncology trials” (British Journal of Cancer, 2018).

Like-named read-outs stand apart in the source and are kept apart here.

As usually defined, the Cmax is the peak of the concentration-time curve.

For data set [1] the following is noted: at the MTD, ref not given, cited from earlier work.
For data set [2] the following is noted: Asian, at the MTD, Day 1; ref not given; cited from earlier work.

Regarding `CN(C)C/C=C/C(=O)Nc1cc2c(Nc3ccc(F)c(Cl)c3)ncnc2cc1O[C@H]1CCOC1` [Afatinib], the Cmax is 27.0 ng/mL in data set [1] (Day 1), 36.6 ng/mL in data set [1] (Day 28) and 44.4 ng/mL in data set [2].
